# Experimental data published in paper PMC4039119, “Inhibition of HER2-integrin signaling by Cucurbitacin B leads to in vitro and in vivo breast tumor growth suppression” (Oncotarget, 2014).
# pIC50: −log10 of the molar value.
# Tests used:
# [1] = test system: breast cancer cells; set-up: method as in PMID 23393598; conditions: 48h of treatment, cell line not stated, cited from earlier work
# [2] = Body weight and organ weight (gross toxicity) in 4T-1 tumor-bearing mice; assay type: in vivo, female BALB/c mice
# Description: (§1) To test the efficacy of CuB in vivo, two breast tumor experiments were performed. In the first experiment, 5X10^6 MDA-MB-231 cells were injected orthotopically in the mammary fat pads of female athymic nude mice. Once each mouse attained palpable tumors, mice were randomly divided into two groups with ten mice in each group. Treatment group received 2mg/kg CuB everyday by oral gavage. The tumor growth was monitored by measuring tumor volumes periodically. […] At day 60 of the treatment, tumor volume in the treated group was reduced by 55% as compared to the control group [249.5±30.3mm^3 vs 111.3±18.4mm^3; (n=10)] (Fig. 7Ai). The weight of the MDA-MB-231 tumors dissected from treated mice was about 53% less than the weight of tumors from control mice (Fig. 7Aii). […] In the other experiment, 0.1X10^6 4T-1 breast cancer cells were injected in the mammary fat pads of female BALB/c mice. 4T-1 cells are highly aggressive and considered to be late stage breast cancer. Once each mouse attained palpable tumors, mice were segregated into two groups with eight mice in each group. 1mg/kg CuB was given intraperitoneally, every third day to the mice of treatment group and the growth of the tumors monitored. […] For example, at day 28 of the treatment, 4T-1 tumor volume in the treated group was reduced by 39% as compared to control group [2355.3±236.4mm^3 vs 1446.7±142.6mm^3; (n=8)] (Fig. 7Bi). Similarly, the weight of the tumors in treated mice was reduced by 27% (Fig. 7Bii & iv). […] Since the weight of the mice dropped initially after intraperitoneal administration, we decided to evaluate the mice of treated group for any signs of gross toxicity. The organs of control and treated mice were weighed once the experiment was terminated. […] The enzymatic activities of AST, ALT and LDH were also evaluated in the plasma of control and CuB treated mice. […] The exact reasons behind the decrease in LDH level by CuB treatment was not clear and require further studies.
# In another experiment, female BALB/c mice (4-6 weeks old) were obtained from Jackson Laboratories (Ban harbor, Maine, USA) and maintained under controlled humidity and temperature conditions. The use of BALB/c mice and their treatment was approved by the Institutional Animal Care and Use Committee (IACUC), Texas Tech University Health Sciences Center, and the experiments were conducted in strict compliance with the regulations. Exponentially growing 4T-1 cells were harvested, washed and re-suspended in PBS at a density of 1x10^6 cells per ml with 50% matrigel. A suspension of 0.1mL containing 0.1x10^6 cells was injected in the mammary fat pads of the recipient mice. Tumor volumes and animal weights were measured every alternate day as described by us previously. When the tumors reached a size of about 30-50 mm3, mice were randomly segregated into two groups with eight mice in each group. The treatment group of mice received 1mg/kg CuB in PBS by i.p. injection every third day till day 28. The control mice received vehicle alone. Mice were sacrificed on day 28 by CO2 overdose and death was confirmed by cervical dislocation in accordance with IACUC guidelines. The tumors were removed aseptically from each mouse, weighed and snap frozen in liquid-nitrogen for further analysis.
# [3] = test system: MDA-MB-231 cells; set-up: method as in PMID 17049494; conditions: MDA-MB-231, 48h, CuB from plant extract; read-out: IC50 (cytotoxicity); cited from earlier work
# [4] = Enzymatic activities of AST, ALT and LDH in plasma; assay type: in vivo, female BALB/c mice; conditions: 1mg/kg i.p.
# Description: as §1
# [5] = Mice weight in MDA-MB-231 tumor experiment; assay type: in vivo, female athymic nude mice; conditions: 2mg/kg oral gavage every day
# Description: Female athymic nude mice (4-6 weeks old) were obtained from Jackson Laboratories (Ban harbor, Maine, USA) and maintained under specific pathogen-free conditions. The use of athymic nude mice and their treatment was approved by the Institutional Animal Care and Use Committee (IACUC), Texas Tech University Health Sciences Center, and the experiments were conducted in strict compliance with the regulations. Mice were given antioxidant-free AIN-76A special diet (TestDiet, Richmond, IN) one week before starting the experiment. Exponentially growing MDA-MB-231 cells were harvested, washed and resuspended in PBS at a density of 50x10^6 cells per ml with 80% matrigel (BD Biosciences, San Jose, CA). A suspension of 0.1mL containing 5x10^6 cells was injected in the mammary fat pads of the recipient mice. Tumor volumes and animal weights were measured twice a week as described by us previously. When the tumors reached a size of about 50-80 mm^3, mice were randomly segregated into two groups with ten mice in each group. Test group of mice received 2mg/kg CuB in PBS by oral gavage every day till day 60, whereas control mice received vehicle alone. Mice were sacrificed on day 60 by CO2 overdose and death was confirmed by cervical dislocation in accordance with IACUC guidelines. […]
# [6] = 1mg/kg i.p., ratio of organ to body weight
substance,measurement,setting,value
Cucurbitacin B [CuB],IC50 (cytotoxicity),[1],38.9 µg/mL
same,pIC50,[1]; read-out: IC50 (cytotoxicity),4.15
same,weight of mice as compared to control,[2]; 1mg/kg i.p. every third day,transitory reduction in weight
same,"weight of organs like liver, spleen, kidney, lungs, brain and heart vs control",[2]; 1mg/kg i.p. every third day,No change
same,Brain weight,"[2]; 1mg/kg i.p., at termination",0.38 ± 0.03 g
same,Heart weight,"[2]; 1mg/kg i.p., at termination",0.17 ± 0.02 g
same,Kidney weight,"[2]; 1mg/kg i.p., at termination",0.43 ± 0.02 g
same,Liver weight,"[2]; 1mg/kg i.p., at termination",1.53 ± 0.10 g
same,Lungs weight,"[2]; 1mg/kg i.p., at termination",0.33 ± 0.02 g
same,Spleen weight,"[2]; 1mg/kg i.p., at termination",0.7 ± 0.10 g
same,body weight,"[2]; 1mg/kg i.p., at termination",19.15 ± 1.17 g
same,Brain/Bw ratio,[2]; [6],0.02±0.01
same,Heart/Bw ratio,[2]; [6],0.01±0.01
same,Kidney/Bw ratio,[2]; [6],0.02±0.01
same,Liver/BW ratio,[2]; [6],0.08±0.00
same,Lungs/Bw ratio,[2]; [6],0.02±0.00
same,Spleen/Bw ratio,[2]; [6],0.04±0.00
same,pIC50,[3],5.10
same,ALT enzymatic activity in plasma,[4],18.41±1.6
same,AST enzymatic activity in plasma,[4],90.54±19.5
same,LDH enzymatic activity in plasma,[4],197.25±47.35
same,change in the activity of ALT and AST,[4]; vs control,no significant change
same,plasma LDH level reduction,[4]; vs control,24.3%
same,weight of mice,[5],did not change significantly
